Consider one molecule from US7879913B2 (Catholic Healthcare West, priority 2005, dated 2011).

Chains of the proteins cited; added tags and fusions are not shown. Residues count along the entry.
UniProt P17787, 26-502: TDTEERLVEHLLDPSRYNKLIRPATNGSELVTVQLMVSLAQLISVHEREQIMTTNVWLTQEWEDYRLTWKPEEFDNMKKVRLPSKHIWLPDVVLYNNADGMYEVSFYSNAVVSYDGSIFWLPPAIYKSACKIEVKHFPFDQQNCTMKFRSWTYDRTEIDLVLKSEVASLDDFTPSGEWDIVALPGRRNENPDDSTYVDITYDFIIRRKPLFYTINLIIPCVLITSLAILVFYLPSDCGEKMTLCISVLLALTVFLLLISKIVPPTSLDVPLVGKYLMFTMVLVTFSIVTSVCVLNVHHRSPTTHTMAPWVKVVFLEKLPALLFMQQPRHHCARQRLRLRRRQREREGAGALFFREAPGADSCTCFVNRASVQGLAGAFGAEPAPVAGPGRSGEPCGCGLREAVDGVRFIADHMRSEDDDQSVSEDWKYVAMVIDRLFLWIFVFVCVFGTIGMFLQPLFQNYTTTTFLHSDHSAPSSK
UniProt P43681, 29-627 limits assumed: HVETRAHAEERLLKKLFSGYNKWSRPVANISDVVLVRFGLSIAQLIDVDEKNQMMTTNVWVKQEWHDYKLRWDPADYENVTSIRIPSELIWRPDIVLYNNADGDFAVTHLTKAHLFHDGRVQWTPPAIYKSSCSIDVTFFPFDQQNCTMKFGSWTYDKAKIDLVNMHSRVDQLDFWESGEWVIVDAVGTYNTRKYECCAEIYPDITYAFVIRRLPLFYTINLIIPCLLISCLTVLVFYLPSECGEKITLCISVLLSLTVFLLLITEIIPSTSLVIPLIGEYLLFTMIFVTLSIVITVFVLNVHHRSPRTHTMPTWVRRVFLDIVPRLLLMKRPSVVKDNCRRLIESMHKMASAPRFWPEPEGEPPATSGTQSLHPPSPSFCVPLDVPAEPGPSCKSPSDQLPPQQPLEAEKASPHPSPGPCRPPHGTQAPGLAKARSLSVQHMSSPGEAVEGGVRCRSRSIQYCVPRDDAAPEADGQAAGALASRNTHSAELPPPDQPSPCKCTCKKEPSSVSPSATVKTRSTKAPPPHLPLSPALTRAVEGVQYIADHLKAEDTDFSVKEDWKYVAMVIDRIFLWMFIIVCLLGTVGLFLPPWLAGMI

The assay deals with α4β2-nAChR agonist binding sites (Homo sapiens, UniProt P17787+P43681). The assay can be described thus: 3H-epibatidine radioligand binding assay. As to conditions: with previously reported IC50 values.

In the case of `CO[C@H]1CC=C2CCN3CCC4=C(CC(=O)OC4)[C@]23C1` [dihydro-β-erythroidine], the “block of 3H-epibatidine binding” value is “blocked”.
